{"source": "patent US9814761B2", "about": "“Compositions, methods and assays comprising amylin or amlyin analogs for abeta-peptide mediated disorders” (TRUSTEES OF BOSTON UNIVERSITY, priority 2012, dated 2017)", "key": {"serum Aβ1-40 and Aβ1-42 [1]": {"system": "serum Aβ1-40 and Aβ1-42", "experiment": "amylin challenge test: i.p. injection, serum Aβ1-40 and Aβ1-42 by ELISA, Tg2576 mice", "format": "in vivo", "conditions": "one Tg2576 mouse (A1); one i.p. pramlintide injection", "description": "(§1) TgAPP2576 mice (n=5) and control mice (n=5) were used. Intraperitoneal injection of amylin (20 mg/kg) was performed, and blood was drawn and collected at pre-injection, after injection at 5 minutes, 1 hr and 24 hrs. Serum Aβ1-40 and Aβ1-42 were measured using ELISA assay. The results of serum Aβ1-40 and Aβ1-42 for each individual mouse are shown. This experiment has been repeated twice for each mouse and similar results were obtained.\n(§2) As shown at FIGS. 3A-3E, amylin injection removes Aβ from the brain into blood in APP transgenic mice. Both the Tg2576 and wild type (WT) mice were used for the amylin challenge test. FIGS. 3A-3B. Amylin (20 mg/kg) was intraperitoneally injected (i.p), and blood was drawn and collected at the time points of pre-injection (the control n=7; Tg2576 n=11), after injection 5 minutes (the control n=7; Tg2576 n=6), 1 hr (the control n=7; Tg2576 n=10) and 24 hrs (the control n=7; Tg2576 n=11). Serum Aβ1-40 and Aβ1-42 were measured by using the ELISA assays. FIGS. 3C-3E. The levels of serum Aβ1-40 and Aβ1-42 at pre-injection of amylin were treated as 1 s, and the relative fold increase after amylin injection at each time point was shown and compared with the pre-injection level by using two-way ANOVA. ***p<0.01; **p<0.05 and *p<0.10.\n(§3) FIGS. 6A-6D depict amylin injection and serum Aβ in mice. […] Serum Aβ1-40 and Aβ1-42 were measured by using the ELISA assays. […]"}, "[2]": {"conditions": "clinical use, pramlintide 30 to 300 mcg tid; NDA21-332; cited from earlier work"}, "plasma Aβ1-40 and Aβ1-42": {"system": "plasma Aβ1-40 and Aβ1-42", "experiment": "pramlintide challenge in two human subjects, plasma Aβ1-40 and Aβ1-42", "format": "in vivo", "conditions": "for ratio of plasma Aβ1-42/Aβ1-40: 3 hours post-injection of pramlintide 60 mcg s.c.; for plasma Aβ1-42 after the injection (course): pramlintide 60 mcg subcutaneous, one dose, 5 to 180 minutes", "description": "(§4) Subcutaneous injections of one dose of pramlintide (60 mcg) was performed in two subjects followed in the research registry of the BU ADC, one control and one probable Alzheimer's disease. Blood was drawn to collect plasma samples before the injection and at 5, 30, 60 and 180 minutes after the injection. Vital signs and blood glucose were monitored at these time points and prior to discharge of the subject from the facility. One hour after the injection, the subjects were offered a standard meal. Plasma Aβ1-40 and Aβ1-42 were measured (Table 2). […] The human results provided herein are encouraging, in part, because the dose of pramlintide (60 mcg) used was only moderate."}, "serum Aβ1-40 and Aβ1-42 [3]": {"system": "serum Aβ1-40 and Aβ1-42", "experiment": "amylin challenge test: i.p. injection, serum Aβ1-40 and Aβ1-42 by ELISA, control (wild type) mice", "format": "in vivo", "conditions": "two wild type mice (N1 and N2); one i.p. pramlintide injection", "description": "as §1, §2, §3"}, "[4]": {"experiment": "vital signs and adverse events after pramlintide injection in two human subjects", "format": "in vivo", "conditions": "both subjects; pramlintide 60 mcg subcutaneous, one dose", "description": "as §4"}, "[5]": {"conditions": "both subjects (control and AD), 3 hours post-injection of pramlintide"}}, "data": [{"smiles": "CC[C@H](C)[C@H](NC(=O)[C@@H]1CCCN1C(=O)CNC(=O)[C@H](Cc1ccccc1)NC(=O)[C@H](CC(N)=O)NC(=O)[C@H](CC(N)=O)NC(=O)[C@H](CO)NC(=O)[C@H](CO)NC(=O)[C@H](Cc1c[nH]cn1)NC(=O)[C@@H](NC(=O)[C@H](CC(C)C)NC(=O)[C@H](Cc1ccccc1)NC(=O)[C@H](CC(N)=O)NC(=O)[C@H](C)NC(=O)[C@H](CC(C)C)NC(=O)[C@H](CCCNC(=N)N)NC(=O)[C@H](CCC(N)=O)NC(=O)[C@@H](NC(=O)[C@H](C)NC(=O)[C@@H]1CSSC[C@H](NC(=O)[C@@H](N)CCCCN)C(=O)N[C@@H](CC(N)=O)C(=O)N[C@@H]([C@@H](C)O)C(=O)N[C@@H](C)C(=O)N[C@@H]([C@@H](C)O)C(=O)N1)[C@@H](C)O)C(C)C)C(=O)N[C@@H](CC(C)C)C(=O)N1CCC[C@H]1C(=O)N1CCC[C@H]1C(=O)N[C@H](C(=O)N[C@@H](CC(N)=O)C(=O)N[C@H](C(=O)NCC(=O)N[C@@H](CO)C(=O)N[C@@H](CC(N)=O)C(=O)N[C@H](C(=O)N[C@@H](Cc1ccc(O)cc1)C(N)=O)[C@@H](C)O)C(C)C)[C@@H](C)O", "note": "[pramlintide]", "values": [{"measurement": "serum Aβ40 level before and after the injection", "setting": "serum Aβ1-40 and Aβ1-42 [1]", "value": "induced the surge"}, {"measurement": "postprandial plasma glucose concentrations", "setting": "[2]", "value": "reduce postprandial plasma glucose concentrations safely"}, {"measurement": "ratio of plasma Aβ1-42/Aβ1-40", "setting": "plasma Aβ1-40 and Aβ1-42; AD subject", "value": "significant increase"}, {"measurement": "plasma Aβ1-42 after the injection (course)", "setting": "plasma Aβ1-40 and Aβ1-42; AD subject", "value": "increased until 30 minutes and then decreased"}, {"measurement": "level of plasma Aβ1-40", "setting": "plasma Aβ1-40 and Aβ1-42; [5]", "value": "reduced significantly"}, {"measurement": "level of plasma Aβ1-42", "setting": "plasma Aβ1-40 and Aβ1-42; [5]", "value": "reduced significantly"}, {"measurement": "ratio of plasma Aβ1-42/Aβ1-40", "setting": "plasma Aβ1-40 and Aβ1-42; control subject", "value": "decrease"}, {"measurement": "plasma Aβ1-42 after the injection (course)", "setting": "plasma Aβ1-40 and Aβ1-42; control subject", "value": "decreased at all the time points"}, {"measurement": "serum Aβ40 level before and after the injection", "setting": "serum Aβ1-40 and Aβ1-42 [3]", "value": "not in those wild type mice"}, {"measurement": "adverse events during the trial or over the next 48 hours", "setting": "[4]", "value": "did not have nausea, vomiting, abdominal pain, headache, dizziness and itching"}, {"measurement": "vital signs during the trial", "setting": "[4]", "value": "stable vital signs"}]}]}
